Molecular target: EGFR (Homo sapiens (Human), UniProt P00533)
Assay: HTRF KinEASE-TK kinase assay, EGFR
Format: biochemical
Experimental: Kinase activity was monitored using a HTRF® KinEASE-TK kit from Cisbio (62TK0PEC). The buffer used was 1× kinase buffer supplemented with 2 mM MnCl2, 5 mM MgCl2, 1 mM TCEP and 100× diluted Supplementary Enzyme Buffer. EGFR was purchased from Promega. […] Reaction with substrate was then initiated by adding biotinylated substrate and ATP. […] After 60 min of incubation, the fluorescence emission was measured at 620 nm and 665 nm. The ratio of Em 665 nm to Em 620 nm was proportional to the amount of substrate phosphorylated by the kinase.
For initial screening, enzymes were pre incubated with compounds at 2 different concentrations (1 and 10 uM final) and 0.5% DMSO.

remaining activity at 1 µM (read-out: % EGFR Remaining activity vs DMSO (1 μM, 3 h)): 50 to 90% | remaining activity at 10 µM (read-out: % EGFR Remaining activity vs DMSO (10 μM, 3 h)): < 50%
SMILES: COc1c(F)c(F)c(F)c(F)c1S(=O)(=O)n1nc(-c2ccc(Oc3ccccc3)cc2)c2c(N)ncnc21 [Compound I-23, 3-(4-phenoxyphenyl)-1-((2,3,4,5-tetrafluoro-6-methoxyphenyl)sulfonyl)-1H-pyrazolo[3,4-d]pyrimidin-4-amine]

Source: patent US20240018153A1, “BENZENESULFONAMIDE DERIVATIVES AND USES THEREOF” (2692372 ONTARIO, INC., priority 2020, published 2024)
